FGF22 binding = binders of human FGF22 protein, primary screen, FGF22 synaptogenesis inhibitor project, biophysical, thermal shift, single point; Fibroblast growth factor 22 (Homo sapiens), Q9HCT0; recombinant FGF22 thermal shift, SYPRO orange fluorescence; percent of sucrose octasulfate shift, DMSO zero; activity (Tm shift, normalised), % at 9.99 µM; 340,000 compounds, 1.5% hits;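 active = mean Tm shift, scaled 0 neutral to 100 positive control, at about 1.3% or above, every replicate too, limit read from the data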
ERp5 block = inhibitors of ERp5-driven insulin aggregation, primary screen, biochemical, turbidity, absorbance 650 nm, single point. 350,000 compounds, 0.05% hits. inhibition, % at 9.99 µM. 90 min. AID 651711, 2012. Protein disulfide-isomerase A6 (Homo sapiens), Q15084;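 active = mean replicate inhibition above about 25%, with every replicate also reaching it, limit read from the data, passing the limit was not always enough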
S100A4 MyoIIA = inhibitors of S100A4-myosin IIA peptide binding, primary screen, biochemical, fluorescence polarization, TAMRA-MyoIIA peptide; Protein S100-A4 (Homo sapiens), P26447; inhibition, % at 10.7 µM; 360,000 compounds, 0.14% hits;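 active = mean inhibition of at least 70% across replicates, with every replicate also reaching that level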
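Test system – S100A4 monomer (human) · Compound – single-point compound testing · Schedule – 5 min incubation before reading · Probe or stimulus – TAMRA-labelled myosin IIA heavy-chain peptide probe, 5 nM · Benchmarks – neutral control DMSO, positive control TFP · Medium – Calcium-containing HEPES buffer, pH 7.2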
PDI inh = inhibitors of human PDI, primary screen, biochemical, turbidity, single point, plate reader. Protein disulfide-isomerase (Homo sapiens), P07237. PDI insulin aggregation turbidity, A650, 90 min. inhibition, % at 10 µM. 350,000 compounds, 0.052% hits. AID 588391, 2011;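 active = mean inhibition across replicates of 30% or more, whatever share of single replicates reach that level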
UUG fidelity = modulators of start codon recognition fidelity in yeast; AID 602363; hit rate 0.13% among 350,000; activity score, % at 18.7 µM; S. cerevisiae UUG-firefly luciferase reporter, luminescence/redox ratio;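 active = replicate mean at a twofold rise or more, about +100% in these data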;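 note: firefly luciferase made from a UUG start codon reports start codon fidelity; reporter light over untreated wells divided by growth signal over untreated wells; some hits fall short of that in this replicate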
SIRT5 inh = SIRT5 desuccinylase inhibitors, primary screen, biochemical, fluorescence imaging, single point, set 5 | 330,000 compounds, 1.1% hits | NAD-dependent protein deacylase sirtuin-5, mitochondrial (Homo sapiens), Q9NXA8 | Purified SirT5, succinyl-peptide AMC, trypsin-coupled fluorescence | AID 652115, 2013 | inhibition, % at 15 µM; in the data active = inhibition above about 15%
* marks the source's active call; other numbers are inactive results; . = not tested or not shown. Compounds with a hit are over-represented: about 2.2% of the library has one in this group of screens.

1: COc1cc(/C=C2\SC(=Nc3ccccc3)NC2=O)cc(Cl)c1O
2: COC(=O)C[C@@H]1CC[C@@H]2[C@H](COC[C@@H](O)CN2S(=O)(=O)c2ccc(F)cc2)O1
3: CCCNC(=O)NC[C@H]1CC[C@@H]2[C@@H](CN2S(=O)(=O)c2ccccc2[N+](=O)[O-])O1
4: COCC(=O)N(C)C[C@@H]1Oc2ncc(-c3cccc(OC)c3)cc2C(=O)N([C@H](C)CO)C[C@H]1C
5: CO[C@@H]1CN(C)C(=O)c2cc(NC(=O)Nc3ccccc3)ccc2OC[C@H](C)N(C(=O)CC2CC2)C[C@H]1C
6: Cn1cnc2c(NCc3ccco3)ncnc21
7: O=C(NCc1cccnc1)Nc1ccc2c(c1)OCO2
8: CCOc1ccccc1NC(=O)NCc1cccnc1

| Screen / compound no. | 1 | 2 | 3 | 4 | 5 | 6 | 7 | 8 |
| --- | --- | --- | --- | --- | --- | --- | --- | --- |
| FGF22 binding | 0.1 | -0.1 | . | -0.1 | 0.1 | -0.2 | 43.2* | 42.9* |
| ERp5 block | 1.4 | 2.9 | 4.2 | -0.1 | 2.6 | -8.0 | 7.7 | -5.7 |
| S100A4 MyoIIA | -2.8 | -2.9 | 2.8 | 1.5 | -11.3 | 0.1 | 5.2 | -2.0 |
| PDI inh | -14.3 | . | . | . | . | . | 2.3 | 1.5 |
| UUG fidelity | -19.4 | -8.2 | . | 1.8 | . | -0.5 | . | . |
| SIRT5 inh | 2.6 | 3.0 | -1.9 | -1.1 | 7.5 | 30.4* | -2.7 | -3.7 |

Printed as active in SIRT5 inh, among the entries above:
#	SMILES	ERp5 block	S100A4 MyoIIA	PDI inh	UUG fidelity	SIRT5 inh
6	Cn1cnc2c(NCc3ccco3)ncnc21	-8.0	0.1	.	-0.5	30.4*

The listing picks up with the 2 entries that preceded the break.
7: O=C(NCc1cccnc1)Nc1ccc2c(c1)OCO2
8: CCOc1ccccc1NC(=O)NCc1cccnc1
9: O=C(COC(=O)c1cccnc1)Nc1ccc2c(c1)OCO2
10: O=C(COC(=O)c1ccccn1)Nc1ccc2c(c1)OCO2
11: C[C@H]1CCCCO[C@@H](CN(C)S(=O)(=O)c2ccc(Cl)cc2)[C@@H](C)CN([C@@H](C)CO)C(=O)c2cc(NC(=O)CCC(F)(F)F)ccc2O1
12: CCOC(=O)C1(CCOc2ccccc2)CCN(Cc2ccc(OCCO)cc2)CC1
13: CCOC(=O)C1(Cc2cccc(OC)c2)CCN(CCO)CC1
14: CCOC(=O)C1(CCOC)CCN(Cc2cnc(-c3cccc(C)c3)nc2)CC1
15: CCOC(=O)C1(CCOC)CCN(Cc2ccc3nonc3c2)CC1
16: CCOC(=O)C1(CCOc2ccccc2)CCN(Cc2ccc(O)cc2)CC1

| Screen / compound no. | 7 | 8 | 9 | 10 | 11 | 12 | 13 | 14 | 15 | 16 |
| --- | --- | --- | --- | --- | --- | --- | --- | --- | --- | --- |
| FGF22 binding | 43.2* | 42.9* | 43.3* | . | -0.1 | -0.1 | 43.5* | 0.1 | -0.2 | -0.1 |
| ERp5 block | 7.7 | -5.7 | -2.9 | 0.2 | 1.8 | 4.7 | -3.9 | -3.0 | 0.4 | 3.2 |
| S100A4 MyoIIA | 5.2 | -2.0 | -2.3 | -1.7 | -13.0 | -3.5 | -7.6 | -1.1 | -1.3 | -6.4 |
| PDI inh | 2.3 | 1.5 | -4.6 | -1.6 | . | 0.0 | 0.1 | -7.0 | 4.8 | 11.9 |
| UUG fidelity | . | . | . | -9.2 | 1.9 | 1.2 | 0.7 | . | -22.8 | -20.7 |
| SIRT5 inh | -2.7 | -3.7 | 1.5 | -6.4 | -3.2 | 21.9* | -7.2 | 20.4* | -1.1 | 1.5 |

17: CC(=O)NC[C@@H]1[C@H](c2ccc(-c3cccc(F)c3)cc2)[C@@H](CO)N1C(C)=O
18: CN1c2ccc(-c3cccc(C#N)c3)cc2[C@H]2[C@H](CCN2C(=O)C2CCC2)[C@H]1CO
19: CCN(CC(=O)Nc1ccc(C)c(F)c1)CC(=O)NC(C)(C)C
20: CCN(CC(=O)Nc1ccc(N2CCOCC2)cc1)CC(=O)NC(C)(C)C
21: COc1ccc(NC(=O)Nc2ccc3c(c2)C(=O)N([C@H](C)CO)C[C@H](C)[C@H](CN(C)Cc2ccccc2)OCCCC[C@@H](C)O3)cc1
22: CN(C)Cc1cc(C(C)(C)c2ccccc2)ccc1O
23: COc1ccc(CN(C)C[C@H]2OCCCC[C@@H](C)Oc3ccc(NS(=O)(=O)c4cccs4)cc3C(=O)N([C@@H](C)CO)C[C@H]2C)cc1
24: CC(=O)Nc1ccc2c(c1)C(=O)N(C)[C@H]1CC[C@H](CC(=O)Nc3cccc(F)c3)O[C@@H]1CO2

| Screen / compound no. | 17 | 18 | 19 | 20 | 21 | 22 | 23 | 24 |
| --- | --- | --- | --- | --- | --- | --- | --- | --- |
| FGF22 binding | . | -0.2 | 43.4* | . | -0.5 | 42.9* | -0.1 | . |
| ERp5 block | . | . | -3.8 | . | -0.4 | 3.2 | 9.2 | -1.5 |
| S100A4 MyoIIA | . | . | -2.7 | . | 26.0 | 1.6 | -11.1 | 2.9 |
| PDI inh | . | . | -14.8 | 11.7 | . | -3.0 | . | . |
| UUG fidelity | -3.8 | 7.9 | . | . | 4.5 | . | 25.4 | . |
| SIRT5 inh | . | . | -3.0 | . | 6.6 | . | 4.2 | 0.5 |

25: CN1CCCCN2[C@@H](CO)[C@@H](c3ccc(C#CC4(O)CCCC4)cc3)[C@@H]2C1
26: COc1ccc(NC(=O)N2CCCCN3[C@H](C2)[C@H](c2ccc(C#Cc4ccccc4)cc2)[C@@H]3CO)cc1
27: COc1ccc(C#Cc2ccc([C@@H]3[C@@H](CO)N4CCCCN(C(=O)Nc5ccc(F)cc5)C[C@@H]34)cc2)cc1
28: COc1ccc(NC(=O)N2CCCCN3[C@H](C2)[C@@H](c2ccc(C#Cc4ccccc4)cc2)[C@@H]3CO)cc1
29: CN(C)CC#Cc1ccc([C@@H]2[C@@H](CO)N3CCCCN(C(=O)CN(C)C)C[C@H]23)cc1
30: CN(C)CC#Cc1ccc([C@@H]2[C@H](CO)N3CCCCN(C(=O)CN(C)C)C[C@@H]23)cc1
31: CO[C@H]1CN(C)C(=O)c2ccc(NS(=O)(=O)c3cn(C)cn3)cc2OC[C@H](C)N(CCC(F)(F)F)C[C@H]1C
32: COc1ccc(NC(=O)NC[C@H]2CC[C@H]3[C@H](CN3Cc3ccccc3C(=O)O)O2)cc1

| Screen / compound no. | 25 | 26 | 27 | 28 | 29 | 30 | 31 | 32 |
| --- | --- | --- | --- | --- | --- | --- | --- | --- |
| FGF22 binding | -0.6 | . | -0.6 | 0.3 | -0.1 | 0.2 | 0.1 | . |
| ERp5 block | 2.0 | . | 0.4 | -1.2 | -2.0 | 6.0 | -0.7 | -2.2 |
| S100A4 MyoIIA | 92.0* | . | 102.3* | 2.9 | 6.9 | 2.2 | -3.5 | 1.2 |
| PDI inh | . | . | . | . | . | . | . | . |
| UUG fidelity | 26.2 | 3.4 | 9.8 | 28.1 | 32.4 | 21.9 | -5.1 | . |
| SIRT5 inh | -2.9 | . | -3.1 | 15.9* | 24.8* | -0.2 | 2.2 | 1.9 |

33: O=C(C[C@@H]1CC[C@@H]2[C@H](COC[C@@H](O)CN2S(=O)(=O)c2ccccc2)O1)NCc1ccc(-c2ccccc2)cc1
34: CO[C@@H]1CN(C)C(=O)c2ccc(NS(=O)(=O)c3ccccc3)cc2OC[C@@H](C)N(Cc2ccccn2)C[C@H]1C
35: CO[C@@H]1CN(C)C(=O)c2cc(NS(C)(=O)=O)ccc2OC[C@H](C)N(S(C)(=O)=O)C[C@@H]1C
36: CCC(=O)N1[C@H](CO)[C@@H](c2ccccc2)C12CN(Cc1cccnc1)C2
37: CC(=O)N1CCCCN2[C@@H](CO)[C@H](c3ccc(Br)cc3)[C@@H]2C1
38: O=C(C[C@H]1CC[C@H]2[C@@H](COC[C@H](O)CN2C(=O)Nc2ccccc2)O1)NCCc1ccncc1
39: Cc1ccc(S(=O)(=O)N2CCC(=O)N([C@H](COCc3cccc(Cl)c3)Cc3ccccc3)CC2)cc1
40: O=C(CCN1CCCCC1)NCC[C@@H]1CC[C@@H](NC(=O)C2CCCC2)[C@H](CO)O1
41: O=C(COc1ccc(Cl)cc1Cl)Nc1ccc(CN2CCCCC2)cc1

| Screen / compound no. | 33 | 34 | 35 | 36 | 37 | 38 | 39 | 40 | 41 |
| --- | --- | --- | --- | --- | --- | --- | --- | --- | --- |
| FGF22 binding | -0.2 | -0.5 | 0.0 | -0.2 | 0.9 | -0.3 | -0.3 | -0.3 | -0.2 |
| ERp5 block | 0.5 | -1.9 | . | 10.6 | 4.0 | -5.8 | 0.2 | 4.7 | 0.6 |
| S100A4 MyoIIA | -0.7 | 16.0 | 7.6 | 9.8 | 5.8 | 4.0 | -1.5 | -4.7 | -18.3 |
| PDI inh | . | . | . | . | . | . | . | . | 7.8 |
| UUG fidelity | . | 9.2 | . | . | -5.3 | -8.3 | . | 7.8 | -12.7 |
| SIRT5 inh | -13.6 | . | -2.3 | -3.6 | 17.0* | -0.2 | 39.9* | 12.4 | 111.8* |

Bioassay records deposited in PubChem BioAssay by Broad Institute.
